In the assay the target is recombinant sEH (soluble epoxide hydrolase, EPHX2) (Homo sapiens (Human), UniProt P34913). In words: biochemical fluorometric sEH inhibition assay with Phome substrate. The following applies: read-out: sEH IC50; recombinant sEH purified from Sf9 insect cells, 2 nM sEH, 5 μM Phome, 60 minutes at 30° C. The method, then: Compounds were tested in a biochemical screening assay using recombinant sEH purified from Sf9 insect cells and an artificial substrate, (3-phenyl-oxiranyl)-acetic acid cyano-(6-methoxy-naphtalen-2-yl)-methyl ester, Phome. The biochemical assay was performed in analogy to a fluorometric described in the literature (P. D. Jones et al., Anal. Biochem. 2005, 343, 66-75). The assay principle bases on the sEH-catalyzed hydrolysis of an artificial α-cyano-ester substrate. O-deacetylation liberates a cyanohydrin intermediate that rapidly decomposes to the highly fluorescent 6-methoxy-2-naphtaldehyde. To discriminate sample autofluorescence, the assay was carried out as a kinetic measurement with two time points. The first measurement is performed immediately before addition of the substrate and the […] measurement is done after completion of the assay. The assay format is either in 96- or in 384-well format.
Details of the assay using a 96-well plate format are described below. 40 μl recombinant sEH enzyme and 5 μl test compound are pre-incubated for 15 minutes at 30° C. […]
Fluorescence is measured with any suitable detector for instance a TECAN Safire or Tecan Ultra at […]. % inhibition of recombinant sEH activity is used for calculation of corresponding IC50 values as illustrated and described in the examples. […]

Chains of the proteins cited; added tags and fusions are not shown.
UniProt P34913, whole entry: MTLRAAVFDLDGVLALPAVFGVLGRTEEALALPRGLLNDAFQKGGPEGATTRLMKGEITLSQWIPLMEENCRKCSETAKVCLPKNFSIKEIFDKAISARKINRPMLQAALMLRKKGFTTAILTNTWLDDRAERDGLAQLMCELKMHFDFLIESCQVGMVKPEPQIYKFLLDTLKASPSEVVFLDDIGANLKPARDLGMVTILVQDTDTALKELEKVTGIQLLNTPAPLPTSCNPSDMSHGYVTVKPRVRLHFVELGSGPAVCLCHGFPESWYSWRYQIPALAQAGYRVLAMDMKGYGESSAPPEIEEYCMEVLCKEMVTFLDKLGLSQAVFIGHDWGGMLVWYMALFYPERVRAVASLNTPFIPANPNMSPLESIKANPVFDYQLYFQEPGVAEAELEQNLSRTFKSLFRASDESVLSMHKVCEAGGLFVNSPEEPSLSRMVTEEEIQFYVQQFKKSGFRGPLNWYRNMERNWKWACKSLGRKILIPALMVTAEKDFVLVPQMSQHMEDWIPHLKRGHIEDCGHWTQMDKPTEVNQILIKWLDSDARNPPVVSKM

Structures are written as SMILES.

Take `O=C(NCc1ccc(Cl)cc1Cl)c1cnc(CN2CCN(C(=O)c3ncccc3O)CC2)s1`: the IC50 is 0.0832 µM.

The values above are taken from patent US9776991B2, “Thienomethylpiperazine derivatives as inhibitors of soluble epoxide hydrolase” (SANOFI, priority 2013, dated 2017).
